# Source: US20260159561A1, “C-terminal CDNF and MANF fragments, pharmaceutical compositions comprising same and uses thereof” (MyNeuroCure Oy, priority 2017, published 2026)
# Assay: Blood-brain barrier penetration study in rats
# Conditions: subcutaneous injection, brain dissected 2 hours later
substance,measurement,value
"CDNF: cerebral dopamine neurotrophic factor; mature human CDNF, SEQ ID NO: 7, 161 amino acids",blood-brain-barrier penetration (radioactivity in brain),in contrast to full-length CDNF the fragment is capable of penetrating
